Results reported in patent publication US9403839B2, “Pyran-spirocyclic piperidine amides as modulators of ion channels” (Vertex Pharmaceuticals Incorporated, priority 2012, dated 2016).

Sequences of proteins named here, by UniProt entry; tags and fusion partners are left off.
UniProt Q15858, whole entry: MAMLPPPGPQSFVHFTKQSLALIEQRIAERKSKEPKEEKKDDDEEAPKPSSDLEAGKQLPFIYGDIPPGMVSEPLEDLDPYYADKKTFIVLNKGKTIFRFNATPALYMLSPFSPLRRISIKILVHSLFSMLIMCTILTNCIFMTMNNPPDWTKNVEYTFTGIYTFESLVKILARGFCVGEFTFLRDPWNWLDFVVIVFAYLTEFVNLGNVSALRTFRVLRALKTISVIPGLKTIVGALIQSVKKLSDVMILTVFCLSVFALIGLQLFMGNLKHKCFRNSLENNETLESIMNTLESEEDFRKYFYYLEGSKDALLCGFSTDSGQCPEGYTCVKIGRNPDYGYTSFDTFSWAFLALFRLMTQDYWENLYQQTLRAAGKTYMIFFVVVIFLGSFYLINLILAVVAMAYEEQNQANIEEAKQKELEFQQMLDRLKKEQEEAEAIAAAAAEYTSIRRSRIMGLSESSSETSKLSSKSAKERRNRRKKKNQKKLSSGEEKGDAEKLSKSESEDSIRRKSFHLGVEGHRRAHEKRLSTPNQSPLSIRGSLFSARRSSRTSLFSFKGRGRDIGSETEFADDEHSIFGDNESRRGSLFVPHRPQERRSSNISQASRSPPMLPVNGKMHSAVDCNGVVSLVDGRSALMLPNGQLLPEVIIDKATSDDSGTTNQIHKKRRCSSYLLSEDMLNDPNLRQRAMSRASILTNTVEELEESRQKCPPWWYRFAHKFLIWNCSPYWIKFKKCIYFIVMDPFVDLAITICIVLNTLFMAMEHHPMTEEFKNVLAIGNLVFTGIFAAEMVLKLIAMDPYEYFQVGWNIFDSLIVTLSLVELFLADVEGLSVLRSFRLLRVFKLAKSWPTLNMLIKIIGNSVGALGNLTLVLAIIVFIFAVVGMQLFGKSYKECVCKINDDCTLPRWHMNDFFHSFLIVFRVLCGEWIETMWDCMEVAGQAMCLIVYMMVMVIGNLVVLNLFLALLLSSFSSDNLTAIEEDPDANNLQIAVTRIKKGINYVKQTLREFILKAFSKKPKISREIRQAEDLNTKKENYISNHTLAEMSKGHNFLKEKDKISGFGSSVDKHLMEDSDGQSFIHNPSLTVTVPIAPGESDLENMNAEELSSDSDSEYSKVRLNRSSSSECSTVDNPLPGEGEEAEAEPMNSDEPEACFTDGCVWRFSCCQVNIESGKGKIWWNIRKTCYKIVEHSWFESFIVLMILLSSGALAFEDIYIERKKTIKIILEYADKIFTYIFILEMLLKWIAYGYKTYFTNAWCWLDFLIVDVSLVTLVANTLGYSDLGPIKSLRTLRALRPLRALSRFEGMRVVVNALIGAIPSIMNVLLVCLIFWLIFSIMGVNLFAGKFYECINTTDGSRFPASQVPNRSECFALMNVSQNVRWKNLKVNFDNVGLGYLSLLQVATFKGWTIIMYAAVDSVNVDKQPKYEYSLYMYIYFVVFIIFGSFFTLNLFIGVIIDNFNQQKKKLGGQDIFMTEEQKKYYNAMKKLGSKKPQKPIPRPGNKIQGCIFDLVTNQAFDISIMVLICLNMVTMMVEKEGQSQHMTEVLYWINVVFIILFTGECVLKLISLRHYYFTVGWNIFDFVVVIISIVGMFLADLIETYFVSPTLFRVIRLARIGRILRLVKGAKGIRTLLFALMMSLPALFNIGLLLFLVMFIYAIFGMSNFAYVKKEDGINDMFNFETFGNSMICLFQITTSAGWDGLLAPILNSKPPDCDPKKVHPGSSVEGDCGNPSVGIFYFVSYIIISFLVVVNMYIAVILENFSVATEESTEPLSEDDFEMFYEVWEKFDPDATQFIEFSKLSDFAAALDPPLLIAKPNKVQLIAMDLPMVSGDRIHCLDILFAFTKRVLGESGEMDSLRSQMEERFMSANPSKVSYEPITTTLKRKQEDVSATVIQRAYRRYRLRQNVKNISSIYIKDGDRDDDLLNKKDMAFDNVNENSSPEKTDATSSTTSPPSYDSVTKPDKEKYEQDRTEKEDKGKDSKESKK

Target: human NaV subtype, like NaV 1.7 (Homo sapiens, UniProt Q15858)
Assay: E-VIPR optical membrane potential assay with electrical stimulation
Conditions: read-out: IC50 Binned Activity Data; one or more sodium channels; assay and NaV subtype not specified for Table 3
Excerpt: Assays for Detecting and Measuring NaV Inhibition Properties of Compound E-VIPR Optical Membrane Potential Assay Method with Electrical Stimulation
Sodium channels are voltage-dependent proteins that can be activated by inducing membrane voltage changes by applying electric fields. The electrical stimulation instrument and methods of use are described in Ion Channel Assay Methods PCT/US01/21652, herein incorporated by reference and are referred to as E-VIPR. The instrument comprises a microtiter plate handler, an optical system for exciting the coumarin dye while simultaneously recording the coumarin and oxonol emissions, a waveform generator, a current- or voltage-controlled amplifier, and a device for inserting electrodes in well. Under integrated computer control, this instrument passes user-programmed electrical stimulus protocols to cells within the wells of the microtiter plate.
24 hours before the assay on E-VIPR, HEK cells expressing human NaV subtype, like NaV 1.7, are seeded in 384-well poly-lysine coated plates at 15,000-20,000 cells per well. Other subtypes are performed in an analogous mode in a cell line expressing the NaV of interest. HEK cells are grown in media (exact composition is specific to each cell type and NaV subtype) supplemented with 10% FBS (Fetal Bovine Serum, qualified; GibcoBRL #16140-071) and 1% Pen-Strep (Penicillin-Streptomycin; GibcoBRL #15140-122). Cells are grown in vented cap flasks, in 90% humidity and 10% CO2, to 100% confluence. They are usually split by trypsinization 1:10 or 1:20, depending on scheduling needs, and grown for 2-3 days before the next split.
100 mg/mL Pluronic F-127 (Sigma #P2443), in dry DMSO
Compound Plates: 384-well round bottom plate, e.g. Corning 384-well Polypropylene Round Bottom #3656
Cell Plates: 384-well tissue culture treated plate, e.g. Greiner #781091-1B
Bath1 buffer. Glucose 10 mM (1.8 g/L), Magnesium Chloride (Anhydrous), 1 mM (0.095 g/L), Calcium Chloride, 2 mM (0.222 g/L), HEPES 10 mM (2.38 g/L), Potassium Chloride, 4.5 mM (0.335 g/L), Sodium Chloride 160 mM (9.35 g/L).
Hexyl Dye Solution: Bath1 Buffer+0.5% β-cyclodextrin (make this prior to use, Sigma #C4767), 8 μM CC2-DMPE+2.5 μM DiSBAC6(3). To make the solution Add volume of 10% Pluronic F127 stock equal to volumes of CC2-DMPE+DiSBAC6(3). The order of preparation is first mix Pluronic and CC2-DMPE, then add DiSBAC6(3) while vortexing, then add Bath1+β-Cyclodextrin.
1) Pre-spot compounds (in neat DMSO) into compound plates. Vehicle control (neat DMSO), the positive control (20 mM DMSO stock tetracaine, 125 μM final in assay) and test compounds are added to each well at 160× desired final concentration in neat DMSO. Final compound plate volume will be 80 μL (80-fold intermediate dilution from 1 μL DMSO spot; 160-fold final dilution after transfer to cell plate). Final DMSO concentration for all wells in assay is 0.625%.
2) Prepare Hexyl Dye Solution.
3) Prepare cell plates. On the day of the assay, medium is aspirated and cells are washed three times with 100 μL of Bath1 Solution, maintaining 25 μL residual volume in each well.
4) Dispense 25 μL per well of Hexyl Dye Solution into cell plates. Incubate for 20-35 minutes at room temp or ambient conditions.
5) Dispense 80 μL per well of Bath1 into compound plates. Acid Yellow-17 (1 mM) is added and Potassium Chloride can be altered from 4.5 to 20 mM depending on the NaV subtype and assay sensitivity.
6) Wash cell plates three times with 100 μL per well of Bath1, leaving 25 of residual volume. Then transfer 25 uL per well from Compound Plates to Cell Plates. Incubate for 20-35 minutes at room temp/ambient condition
7) Read Plate on E-VIPR. Use the current-controlled amplifier to deliver stimulation wave pulses for typically 9 seconds and a scan rate of 400 Hz. A pre-stimulus recording is performed for 0.5 seconds to obtain the un-stimulated intensities baseline. […]

SMILES | IC50
CCOC1CC(c2ccccc2)OC2(CCN(C(=O)c3ccc(C(C)(C)O)c(F)c3)CC2)C1 (stereo not shown) | < 2000 nM
CCOC1CC(c2ccccc2)OC2(CCN(C(=O)c3ccccc3C(F)F)CC2)C1 (stereo not shown) | > 5000 nM
COC1CC(c2cccnc2)OC2(CCN(C(=O)c3ccc(OC(C)C)c(C)n3)CC2)C1 (stereo not shown) | > 5000 nM
CCOC1CC(c2ccc(F)cc2)OC2(CCN(C(=O)c3ccc(OC(C)C)c(OC)c3)CC2)C1 (stereo not shown) | < 2000 nM
CCOC1CC(c2ccccc2)OC2(CCN(C(=O)c3ccc(Cl)c(F)c3)CC2)C1 (stereo not shown) | 2000 to 5000 nM
CCOC1CC(c2ccncc2)OC2(CCN(C(=O)c3ccc(OC(C)C)c(C)c3)CC2)C1 (stereo not shown) | < 2000 nM
CCOC1CC(c2ccccc2)OC2(CCN(C(=O)c3cccc(F)c3OC)CC2)C1 (stereo not shown) | < 2000 nM
CCOC1CC(c2ccccc2)OC2(CCN(C(=O)c3cn4cc(C)ccc4n3)CC2)C1 (stereo not shown) | 2000 to 5000 nM
CCOC1CC(c2ccccc2)OC2(CCN(C(=O)c3ccc(OC(C)C)c(F)c3)CC2)C1 (stereo not shown) | > 5000 nM
CCOC1CC(c2ccnn2C)OC2(CCN(C(=O)c3ccc(OC(C)C)c(C)c3)CC2)C1 (stereo not shown) | 2000 to 5000 nM
CCOc1ccc(C(=O)N2CCC3(CC2)CC(OCC)CC(c2ccccc2)O3)nc1 (stereo not shown) | < 2000 nM
CCOC1CC(c2ccccc2)OC2(CCN(C(=O)c3ccc(OCC(F)(F)F)cc3)CC2)C1 (stereo not shown) | < 2000 nM
CCOC1CC(c2ccccc2)OC2(CCN(C(=O)c3ccccc3OC(F)F)CC2)C1 (stereo not shown) | < 2000 nM
CCOC1CC(c2ccccc2)OC2(CCN(C(=O)c3ccc(S(=O)(=O)C(F)(F)F)cc3)CC2)C1 (stereo not shown) | < 2000 nM
CCOC1CC(c2ccccc2)OC2(CCN(C(=O)c3ccc(C(F)(F)F)cn3)CC2)C1 (stereo not shown) | 2000 to 5000 nM
CCOC1CC(c2ccccc2)OC2(CCN(C(=O)c3ccc(OCC(C)(C)O)c(C)c3)CC2)C1 (stereo not shown) | < 2000 nM
CCOC1CC(c2ccccc2)OC2(CCN(C(=O)c3ccccc3COC)CC2)C1 (stereo not shown) | 2000 to 5000 nM
CCOC1CC(c2cccc(F)c2)OC2(CCN(C(=O)c3ccc(OC(C)C)c(C)c3)CC2)C1 (stereo not shown) | < 2000 nM
CCOC1CC(c2ccccc2)OC2(CCN(C(=O)c3ccc(OCC(C)(C)F)c(OC)c3)CC2)C1 (stereo not shown) | < 2000 nM

SMILES | IC50
CCOC1CC(c2ccccc2)OC2(CCN(C(=O)c3ccc(OC)cc3OC)CC2)C1 (stereo not shown) | < 2000 nM
CCNc1ncccc1C(=O)N1CCC2(CC1)CC(OCC)CC(c1ccccc1)O2 (stereo not shown) | 2000 to 5000 nM
CCCOC1CC(c2ccnn2C)OC2(CCN(C(=O)c3ccc(OC(C)C)c(C)c3)CC2)C1 (stereo not shown) | < 2000 nM
CCOC1CC(c2ccccc2)OC2(CCN(C(=O)c3ccc4ccccc4n3)CC2)C1 (stereo not shown) | < 2000 nM
CCOC1CC(c2ccccc2)OC2(CCN(C(=O)c3cnn(-c4ccc(F)cc4)c3C)CC2)C1 (stereo not shown) | < 2000 nM
CCCOc1ccc(C(=O)N2CCC3(CC2)CC(OCC)CC(c2ccccc2)O3)cc1OC (stereo not shown) | < 2000 nM
CCOC1CC(c2cccnc2)OC2(CCN(C(=O)c3ccc(OC(C)C)c(C)c3)CC2)C1 (single isomer, unassigned) [146] | < 2000 nM
CCOC1CC(c2ccccc2)OC2(CCN(C(=O)c3ccc(OC)c(Cl)c3)CC2)C1 (stereo not shown) | < 2000 nM
CCOC1CC(c2ccccn2)OC2(CCN(C(=O)c3ccc(S(=O)(=O)C(F)F)cc3)CC2)C1 (stereo not shown) | 2000 to 5000 nM
CCC1CC(c2cccnc2)OC2(CCN(C(=O)c3ccc(OC(C)C)c(C)c3)CC2)C1 (stereo not shown) | < 2000 nM
CCCOC1CC(c2cccnc2)OC2(CCN(C(=O)c3ccc(OC(C)C)c(C)c3)CC2)C1 (stereo not shown) | < 2000 nM
CCOC1CC(c2ccccc2)OC2(CCN(C(=O)c3ccc(OCCO)c(OC)c3)CC2)C1 (stereo not shown) | > 5000 nM
CCOC1CC(c2cncc(OC)c2)OC2(CCN(C(=O)c3ccc(OC(C)C)c(C)c3)CC2)C1 (stereo not shown) | < 2000 nM
CCOC1CC(c2ccccc2)OC2(CCN(C(=O)c3cccc(OC(F)F)c3)CC2)C1 (stereo not shown) | 2000 to 5000 nM
CCOC1CC(c2ccccc2)OC2(CCN(C(=O)c3ccc(S(=O)(=O)C(F)F)cc3)CC2)C1 (stereo not shown) | < 2000 nM
CCOC1CC(c2ccc(F)cc2)OC2(CCN(C(=O)c3ccc(C(C)(C)O)c(F)c3)CC2)C1 (stereo not shown) | < 2000 nM
CCOC1CC(c2ccccc2)OC2(CCN(C(=O)c3ccc(S(=O)(=O)C(C)C)c(C)c3)CC2)C1 (stereo not shown) | < 2000 nM
CCOC1CC(c2ccccc2)OC2(CCN(C(=O)c3ccc(OC(C)C)c(C)n3)CC2)C1 (stereo not shown) | < 2000 nM
